Literature values as cited in patent publication US5521180A, “Morpholine derivative” (Yamanouchi Pharmaceutical Co., Ltd., priority 1993, dated 1996).

Test system: 5-HT reuptake
Conditions: background; cited from earlier work

Structure (SMILES): O=c1n(CCCN2CCN(c3cccc(Cl)c3)CC2)nc2ccccn12 [Trazodone]
- 5-HT reuptake inhibitory activity (in words): very weak
